This is an account of results in US20200405868A1, “GEL-FORMING POLYPEPTIDES” (priority 2018, published 2020).

This data set can be described thus: Compound gel-forming ability in water (visual inspection, tube tapping assay, tilted tube assay).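 As to all read-outs here: peptides mixed with de-ionized water at about 22-25 °C, judged after 20 min by eye plus tube tapping (10 taps, moves counted) and 90° tilt mobility.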 In kind it is physicochemical. As to conditions: for gel formation at 11% w/w: 11% w/w in water; for gel formation at 20% w/w: 20% w/w in water; for gel formation in aqueous solution, 11% / gel formation in aqueous solution, 20%: Table 3; for gel formation in aqueous solution, 11%: 11% w/w; for gel formation in aqueous solution, 20%: 20% w/w. On the set-up: key to Physical property at 11% w/w / gel formation in aqueous solution, 20% / gel formation in aqueous solution, 11%: SS for semisolid gel; LG for liquid gel.

In the case of “Pal-HSDKPDMAEIEKFDKSKLKKTETQEKNPLPSKETIEQEKQAGES-NH2 [SEQ ID NO:263]”, the “gel formation at 11% w/w” value is listed as “liquid gel”; the “gel formation at 20% w/w” value was “liquid gel”; the “gel formation in aqueous solution, 11%” value is given as “LG”; the “gel formation in aqueous solution, 20%” value was “LG”. Besides, where the note is “Table 1, 11% w/w in aqueous solution, room temperature”, the “Physical property at 11% w/w” value was “LG”.
For the substance “Pal-KVQKLSAPVDPSSPHSY-miniPEG-ELYENKPRRPYIL [SEQ ID NO:207]”, the “gel formation at 11% w/w” value is recorded as “liquid gel”; the “gel formation at 20% w/w” value was “liquid gel”; the “gel formation in aqueous solution, 11%” value was “LG”; the “gel formation in aqueous solution, 20%” value is recorded as “LG”.
